Results from ChEMBL document CHEMBL1152936, “Human sialidase inhibitors: design, synthesis, and biological evaluation of 4-acetamido-5-acylamido-2-fluoro benzoic acids” (Bioorg Med Chem, 2009).

Target: T1, Sialidase-4 (Homo sapiens, UniProt Q8WWR8)
T1 sequence (Q8WWR8 whole entry): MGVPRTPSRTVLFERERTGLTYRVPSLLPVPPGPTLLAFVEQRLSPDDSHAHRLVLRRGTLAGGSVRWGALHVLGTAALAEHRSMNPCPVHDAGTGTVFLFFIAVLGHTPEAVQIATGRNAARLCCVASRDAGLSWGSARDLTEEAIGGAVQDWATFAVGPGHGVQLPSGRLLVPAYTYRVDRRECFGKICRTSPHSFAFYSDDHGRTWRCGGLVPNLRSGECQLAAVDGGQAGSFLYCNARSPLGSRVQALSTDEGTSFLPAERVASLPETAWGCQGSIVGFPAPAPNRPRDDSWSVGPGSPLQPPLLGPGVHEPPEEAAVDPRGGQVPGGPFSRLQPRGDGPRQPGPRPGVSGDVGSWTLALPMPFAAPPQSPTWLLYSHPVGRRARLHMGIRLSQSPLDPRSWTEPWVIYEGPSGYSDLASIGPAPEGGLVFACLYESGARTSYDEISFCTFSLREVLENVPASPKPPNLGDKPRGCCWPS
Assay: Inhibition of human NEU4 transiently transfected in HEK293T cells by fluorimetric analysis
Type: cell-based, HEK-293T

CC(=O)N[C@H]1[C@H]([C@H](O)[C@H](O)CO)OC(C(=O)O)=C[C@@H]1O [NEU5AC2EN]
pIC50: 4.15

pIC50: −log10 of the molar value.
